## Ab-95 light chain CDR variants: yeast mating affinities

Target peptide (SARS-CoV-2 spike, HR2 region): PDVDLGDISGINAS

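The starting antibody came from a phage panning campaign against this peptide. Variants in AAYL52 differ from the parent at up to three CDR positions; double and triple changes were sampled at random. The scFvs were displayed on barcoded MATa yeast, the peptide on MATalpha yeast. After mating in shaken culture at 30 °C for 16 h, diploids were selected and their barcode pairs sequenced. Each replicate has its own calibration line, from reference interactions of the BCL2 family. The assay was run in three technical replicates.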

The variants keep the heavy chain, the linker and the frameworks of Ab-95 (scFv order VH, three GGGGS repeats, VL).
VH: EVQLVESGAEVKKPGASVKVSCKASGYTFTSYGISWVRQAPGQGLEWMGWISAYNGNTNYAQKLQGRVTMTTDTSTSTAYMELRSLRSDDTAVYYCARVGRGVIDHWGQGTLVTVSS
VL: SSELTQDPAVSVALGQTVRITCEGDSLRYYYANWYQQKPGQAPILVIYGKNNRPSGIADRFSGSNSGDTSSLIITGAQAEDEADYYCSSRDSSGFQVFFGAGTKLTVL

Changes read parent residue, position, new residue, counted from the first residue of the VL shown. Affinities are written as log10 Kd with Kd in nM; a lower number is a better binder. A mean of the replicates is given; it leaves out those without a signal. "nd" means that the variant was in the library but no mating with the target was seen in that replicate; the authors take this as a sign of poor binding, and no number exists.

| changes | replicates, log10 nM | mean, log10 nM | signal with controls |
|---|---|---|---|
| S26C/R28T/S93R | nd / 5.58 / nd | 5.58 | 1 of 9 (3.43) |
| D25M/N33Q/R53S | 4.36 / 2.65 / 2.27 | 3.09 | 1 of 9 (5.26) |
| G24I/D91C/G94N | nd / nd / nd | nd | 2 of 9 (3.77) |
| K50S/S55L/F95S | 2.81 / 2.86 / 2.81 | 2.83 | 5 of 9 (4.10) |
| G49V/D91Y/S93D | 3.82 / 4.48 / nd | 4.15 | 1 of 9 (3.77) |
| Y29N/G94W/Q96T | 1.46 / 1.42 / 1.41 | 1.43 | 3 of 9 (4.02) |
| Y30I/N33H/P54M | nd / 4.09 / 4.35 | 4.22 | 3 of 9 (4.19) |
| S26F/Y31M/S55N | 3.55 / 3.57 / 3.26 | 3.46 | 0 of 9 |
| R28M/G49N/S92F | 2.59 / 1.98 / 2.32 | 2.29 | 1 of 9 (3.53) |
| S55K/S89Y | nd / nd / nd | nd | 1 of 9 (4.64) |
| E23A/A32T/P54W | 3.39 / 2.62 / 2.69 | 2.90 | 6 of 9 (3.84) |
| N33F/P54C/D91E | 1.69 / 1.45 / 1.24 | 1.46 | 4 of 9 (4.27) |
| G49F/K50Q/N52P | nd / nd / nd | nd | 2 of 9 (4.14) |
| G49H/S89D/F95H | 2.83 / 3.84 / 4.50 | 3.72 | 4 of 9 (3.80) |
| S55C/D91F | 4.82 / 5.68 / nd | 5.25 | 5 of 9 (4.21) |
| Y29Q/S93P/F95Y | 2.44 / 3.06 / 2.42 | 2.64 | 1 of 9 (5.47) |
| S26K/L27W/S55L | 2.84 / 2.88 / 4.37 | 3.36 | 7 of 9 (4.35) |
| N52M/R53V | 2.64 / 2.11 / 2.01 | 2.25 | 4 of 9 (4.31) |
| Y29L/N33A/G94P | nd / 3.92 / 4.95 | 4.44 | 4 of 9 (4.23) |
| A32L/G94C/F95Y | 4.25 / nd / 4.35 | 4.30 | 2 of 9 (3.90) |
| K50T/N51H/S88P | 3.07 / 2.68 / 2.86 | 2.87 | 7 of 9 (4.13) |
| K50A/R90P/D91G | 2.55 / 3.40 / 2.83 | 2.93 | 5 of 9 (3.68) |
| G24W/S55Y/S88G | nd / nd / nd | nd | 1 of 9 (4.07) |
| D25F/Y30W/S88W | 3.20 / 3.28 / 2.71 | 3.07 | 5 of 9 (3.57) |
| D25V/R28A/N51P | 3.91 / nd / nd | 3.91 | 3 of 9 (4.24) |
| Y29L/R53A/V97T | nd / nd / 2.78 | 2.78 | 2 of 9 (3.84) |
| P54C/S88G/S92L | nd / nd / nd | nd | 2 of 9 (3.60) |
| G24P/R28N/Y31G | 3.06 / 2.93 / 2.71 | 2.90 | 4 of 9 (4.11) |
| Y30F/R90L | nd / 4.16 / 4.50 | 4.33 | 1 of 9 (4.45) |
| R28I/Y29C/G49M | 3.61 / nd / 4.01 | 3.81 | 6 of 9 (4.10) |
| K50M/N52C/R90L | 3.74 / nd / nd | 3.74 | 3 of 9 (3.49) |
| R53S/R90I/D91M | nd / nd / nd | nd | 1 of 9 (3.49) |
| S26Q/P54T/D91V | 4.26 / 4.12 / nd | 4.19 | 3 of 9 (3.74) |
| Y30V/D91Y/S92T | nd / nd / 3.76 | 3.76 | 0 of 9 |
| Y30S/N51Q/F95G | 2.60 / 2.28 / 2.22 | 2.37 | 6 of 9 (3.73) |
| A32L/G49W/F98Q | nd / nd / 4.35 | 4.35 | 2 of 9 (4.56) |
| Y30P/F95S | 3.00 / 3.05 / 2.42 | 2.82 | 0 of 9 |
| Y31R/K50H/R53T | 3.00 / 3.36 / 3.48 | 3.28 | 1 of 9 (4.16) |
| Y30Q/A32H/S55V | 2.45 / 2.46 / 3.08 | 2.66 | 3 of 9 (3.81) |
| Y29L/P54A/D91A | 2.84 / 2.91 / 2.62 | 2.79 | 5 of 9 (3.73) |
| G24I/A32R/S88N | nd / nd / nd | nd | 0 of 9 |
| K50E/P54H/F95Q | 2.31 / 1.66 / nd | 1.98 | 0 of 9 |
| L27S/K50C/Q96P | 3.86 / 4.97 / nd | 4.41 | 4 of 9 (3.97) |
| D25H/N51V/R53W | 4.40 / nd / nd | 4.40 | 1 of 9 (3.94) |
| Y30H/S92L/V97K | 3.26 / 2.90 / 2.53 | 2.90 | 0 of 9 |
| S26F/R28A/Y30L | 2.50 / 2.66 / 2.00 | 2.39 | 4 of 9 (3.96) |
| Y31E/S88M/S92K | 0.85 / 0.67 / 0.12 | 0.55 | 3 of 9 (4.58) |
| G24L/S93Y/V97S | 4.05 / nd / 4.37 | 4.21 | 2 of 9 (3.94) |
| E23A/Y31C/G94P | 3.54 / 2.84 / nd | 3.19 | 1 of 9 (3.22) |

Repeated from above, the 7 best binders with a signal in all replicates:

| changes | replicates, log10 nM | mean, log10 nM | signal with controls |
|---|---|---|---|
| Y31E/S88M/S92K | 0.85 / 0.67 / 0.12 | 0.55 | 3 of 9 (4.58) |
| Y29N/G94W/Q96T | 1.46 / 1.42 / 1.41 | 1.43 | 3 of 9 (4.02) |
| N33F/P54C/D91E | 1.69 / 1.45 / 1.24 | 1.46 | 4 of 9 (4.27) |
| N52M/R53V | 2.64 / 2.11 / 2.01 | 2.25 | 4 of 9 (4.31) |
| R28M/G49N/S92F | 2.59 / 1.98 / 2.32 | 2.29 | 1 of 9 (3.53) |
| Y30S/N51Q/F95G | 2.60 / 2.28 / 2.22 | 2.37 | 6 of 9 (3.73) |
| S26F/R28A/Y30L | 2.50 / 2.66 / 2.00 | 2.39 | 4 of 9 (3.96) |

Nonspecific signal, from three strains lacking the peptide, appeared in 28% of pairings of library AAYL52, centred on 3.91 (5% of these signals below 2.90); values are not corrected for it. The control count says in how many pairings with the empty strains this scFv gave a signal, with their mean in brackets. Parent in this assay: reference entry 2.31, copy in this library 2.25.

Reference: Engelhart et al. 2022, doi:10.1038/s41597-022-01779-4. File: FLAb, binding data.